The species entered for one series is Chlorocebus aethiops. Kind of series: Cytotoxicity against African green monkey COS-7 cells assessed as reduction in cell viability incubated for 24 hrs by Celltiter assay.
Series [1] is described as follows: Cytotoxicity against hamster BHK-21 cells assessed as reduction in cell viability incubated for 24 hrs by Celltiter assay. The series is classed as toxicity, cell-based, Mesocricetus auratus.

On to `COc1ccc(-c2cc(=O)c3c(O)cc(O)c(-c4cc(-c5cc(=O)c6c(O)cc(O)cc6o5)ccc4O)c3o2)cc1` [PODOCARPUSFLAVONE A], for which the IC50 at 24 h (in the series listed under Chlorocebus aethiops; in series [1]) was 750 nM throughout.

Source of the values: ChEMBL document CHEMBL5150000, “Insights on Dengue and Zika NS5 RNA-dependent RNA polymerase (RdRp) inhibitors” (Eur J Med Chem, 2021).
